In the library only some 1.3% were active in any assay of this set; here they are far more common.
E-sel inducer – induces E-selectin expression in human endothelial cells; P16581; HUVEC E-selectin immunofluorescence imaging; normalized: neutral wells 0, TNF-alpha wells 100; activation, % at 7.58 µM; hit rate 0.37% among 260,000; AID 686992;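 active = mean E-selectin-positive cell signal at least 10% of the positive control, reached in at least 60% of replicates, without over 20% cell loss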
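Material: HUVEC primary endothelial cells; Amount: 3,000 cells per well; Dosing: single concentration; Medium: EGM-2 growth medium on 0.1% gelatin-coated wells; Read-out basis: percent E-selectin-positive cells; Signal: immunofluorescence imaging; Control set: TNF-alpha, DMSO.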
S100A4 MyoIIA – S100A4-myosin IIA interaction inhibition | hit rate 0.14% among 360,000 | AID 652163 | inhibition, % at 10.7 µM | P26447 | S100A4/TAMRA-MyoIIA peptide fluorescence polarization;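 active = mean inhibition of at least 70% across replicates, with every replicate also reaching that level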
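Material: S100A4 monomer protein / Buffer or medium: 50 mM HEPES pH 7.2, 10 mM CaCl2, 100 mM KCl / Times: 5 min incubation before reading / Benchmarks: neutral control DMSO, positive control TFP / Reagent: labelled myosin peptide probe, 5 nM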
ARNT TACC3 PPI – disrupts binding between human ARNT and TACC3 | AID 623870 | inhibition, % at 9.99 µM | Q9Y6A5 | AlphaScreen His-ARNT PAS-B/GST-TACC3 binding, luminescence; TACC3 fragment carries E629A point mutation | hit rate 0.66% among 390,000;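 active = mean inhibition of replicates at least 50% and at least half of replicates each reaching 50%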
ERAP1 inh – inhibitors of human ERAP1 aminopeptidase | Q9NZ08 | hit rate 0.15% among 340,000 | inhibition, % at 10.7 µM | recombinant ERAP1, Leu-AMC fluorescence, 60 min;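 active = mean replicate inhibition of at least 30%, or all replicates individually reaching that 30% level; inactive = mean below 30% and not every replicate reaching it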
MLL AF4-AF9 inh – MLL-AF4/AF9 protein interaction inhibition; hit rate 0.47% among 350,000; AlphaScreen, biotin-AF4 peptide binding to FLAG-AF9; AID 651704; inhibition, % at 10 µM; P42568;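 active = every replicate reaching a set inhibition limit, whatever the replicate mean, cut at about 25% in these data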
UUG fidelity – modulators of start codon recognition fidelity in yeast; AID 602363; hit rate 0.13% among 350,000; activity score, % at 18.7 µM; S. cerevisiae UUG-firefly luciferase reporter, luminescence/redox ratio;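 active = replicate mean at a twofold rise or more, about +100% in these data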;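 note: firefly luciferase made from a UUG start codon reports start codon fidelity; reporter light over untreated wells divided by growth signal over untreated wells; some hits fall short of that in this replicate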
AlphaScreen ctr – counter-screen for ARNT/TACC3 inhibitors: AlphaScreen artifacts. AID 651705. shares compounds with ARNT TACC3 PPI. hit rate 50% among 1,200. AC50, µM (top dose mostly 68 µM). His-ARNT PASB-GST AlphaScreen artifact counter-screen, luminescence;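 active = every separate test run was called active for a drop in luminescence, with AC50 within twice the top valid dose, actives reach about 71 µM in these data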
Large screens that a line does not name were inactive (follow-up assays come after a bar, where they were run).

C[C@H](CO)N1C[C@H](C)[C@H](CN(C)Cc2ccc3c(c2)OCO3)Oc2cc(-c3cccc(C(=O)N(C)C)c3)ccc2S1(=O)=O	none (no result: E-sel inducer)
COc1ccc(OC)c(-c2cc(C(=O)N3CCN(c4ncccn4)CC3)c3ccccc3n2)c1	ARNT TACC3 PPI 51 (no result: E-sel inducer, S100A4 MyoIIA, ERAP1 inh, MLL AF4-AF9 inh) | AlphaScreen ctr inactive
O=C(c1ccccn1)N1CC[C@@H]2[C@H]1c1cc(Br)ccc1N[C@@H]2CO	ARNT TACC3 PPI 69 | AlphaScreen ctr 53µM
CN(C)C(=O)c1cccc(-c2ccc3c(c2)[C@@H]2[C@@H](CCN2C(=O)c2cccnc2)[C@@H](CO)N3)c1	ARNT TACC3 PPI 65 (no result: S100A4 MyoIIA, ERAP1 inh, MLL AF4-AF9 inh) | AlphaScreen ctr inactive
COc1ccc(-c2cn(CC[C@H]3CC[C@H](NC(=O)Cc4ccccn4)[C@@H](CO)O3)nn2)cc1	none
Cc1ccc(S(=O)(=O)Cn2nnnc2C(c2ccccc2)N2CCN(c3ccccc3)CC2)cc1 (stereo not drawn)	ARNT TACC3 PPI 58 (no result: E-sel inducer, S100A4 MyoIIA, ERAP1 inh, MLL AF4-AF9 inh) | AlphaScreen ctr inactive
O=C(C[C@H]1CC[C@@H]2[C@H](COC[C@H](O)CN2S(=O)(=O)c2cccc(F)c2)O1)NC1CCC1	none
O=C(Nc1ccc(F)cc1)c1cccnc1NCCc1ccccc1	none (no result: S100A4 MyoIIA, ERAP1 inh, MLL AF4-AF9 inh)
O=C(Nc1cccc(F)c1)c1cccnc1NCCc1ccccc1	ARNT TACC3 PPI active (no result: S100A4 MyoIIA, ERAP1 inh, MLL AF4-AF9 inh, UUG fidelity) | AlphaScreen ctr inactive
O=S1(=O)N=C(N(CCO)/N=C/c2ccc(Cl)cc2)c2ccccc21	none (no result: E-sel inducer)
O=S1(=O)N=C(N(CCO)/N=C/C=C/c2ccccc2)c2ccccc21	ARNT TACC3 PPI 55 (no result: E-sel inducer, S100A4 MyoIIA, ERAP1 inh, MLL AF4-AF9 inh) | AlphaScreen ctr 39µM
COc1cc(/C=N/N(CCO)C2=NS(=O)(=O)c3ccccc32)cc(OC)c1OC	ARNT TACC3 PPI 41 (no result: E-sel inducer) | AlphaScreen ctr inactive
COc1cc(Br)cc(/C=N/N(CCO)C2=NS(=O)(=O)c3ccccc32)c1OC	none
CC=Cc1ccc2n(c1=O)C[C@H]1N[C@@H]2[C@@H](C(=O)NCc2ccc3c(c2)OCO3)[C@@H]1CO (mixture of isomers)	none (no result: UUG fidelity)
CCCNC(=O)N1C[C@H]2[C@@H](c3ccccc31)[C@H](CO)N2Cc1cc(F)ccc1F	none
COc1ccc(CCNC(=O)CSc2nnc(Cn3c(=O)sc4ccccc43)n2C)cc1OC	none (no result: E-sel inducer, UUG fidelity)
COc1ccc(CCNC(=O)CSc2nnc(Cc3csc(N)n3)n2C)cc1OC	ARNT TACC3 PPI 28 (no result: E-sel inducer, S100A4 MyoIIA, ERAP1 inh, MLL AF4-AF9 inh) | AlphaScreen ctr inactive
CC(=O)N1CC2(C1)[C@H](c1ccc(-c3ccc(C#N)cc3)cc1)[C@@H](CO)N2C(C)=O	none (no result: ARNT TACC3 PPI, UUG fidelity)
COCC(=O)N1CC2(CN(Cc3ccc(OC)cc3)C2)c2c([nH]c3cc(OC)ccc23)[C@H]1CO	none (no result: ARNT TACC3 PPI, UUG fidelity)
COc1ccc(Br)cc1CNc1ccc(O)cc1	ARNT TACC3 PPI 14 (no result: E-sel inducer, S100A4 MyoIIA, ERAP1 inh, MLL AF4-AF9 inh) | AlphaScreen ctr 53µM
O=C(C[C@@H]1CC[C@@H](NC(=O)CCN2CCCCC2)[C@@H](CO)O1)NCc1ccc(Cl)c(Cl)c1	none
O=C(C[C@H]1CC[C@@H]2[C@H](COC[C@H](O)CN2Cc2cc(F)ccc2F)O1)N[C@@H]1CCN(Cc2ccccc2)C1	none (no result: UUG fidelity)
Nc1ccccc1C(=O)N=Nc1[nH]c(N)c2ccccc12	ARNT TACC3 PPI 62 (no result: E-sel inducer, UUG fidelity) | AlphaScreen ctr 56µM
C/C(=N\NC(=O)c1c[nH]c2ccccc12)c1ccc(C)o1	ARNT TACC3 PPI 62 (no result: E-sel inducer, S100A4 MyoIIA, ERAP1 inh, MLL AF4-AF9 inh) | AlphaScreen ctr 57µM
C/C(=N\NC(=O)c1cc2ccccc2cc1O)c1ccc(C)o1	none
CO[C@@H]1CN(C)C(=O)c2ccc(NC(=O)c3ccccn3)cc2OC[C@@H](C)N(C(=O)C2CC2)C[C@H]1C	ARNT TACC3 PPI 57 (no result: E-sel inducer) | AlphaScreen ctr 32µM
CO[C@@H]1CN(C)C(=O)c2ccc(NC(=O)c3cnccn3)cc2OC[C@@H](C)N(C(=O)C2CC2)C[C@H]1C	none
CO[C@@H]1CN(C)C(=O)c2cc(NC(=O)C3CCCC3)ccc2OC[C@H](C)N(C)C[C@H]1C	none
CCCC(C)NC(=O)c1ccc2[nH]c3c(c2c1)CC(C)CC3 (stereo not drawn)	none (no result: E-sel inducer, S100A4 MyoIIA, ERAP1 inh, MLL AF4-AF9 inh, UUG fidelity)
COC(=O)c1ccc2[nH]c3c(c2c1)CC(C)CC3 (stereo not drawn)	ARNT TACC3 PPI 21 (no result: E-sel inducer) | AlphaScreen ctr inactive

Screening results (PubChem BioAssay)
